Our source for the activation values is PubChem BioAssay AID504905 (The Scripps Research Institute Molecular Screening Center, 2011).

Chains of the proteins cited; added tags and fusions are not shown.
UniProt P47898, whole entry, looked up: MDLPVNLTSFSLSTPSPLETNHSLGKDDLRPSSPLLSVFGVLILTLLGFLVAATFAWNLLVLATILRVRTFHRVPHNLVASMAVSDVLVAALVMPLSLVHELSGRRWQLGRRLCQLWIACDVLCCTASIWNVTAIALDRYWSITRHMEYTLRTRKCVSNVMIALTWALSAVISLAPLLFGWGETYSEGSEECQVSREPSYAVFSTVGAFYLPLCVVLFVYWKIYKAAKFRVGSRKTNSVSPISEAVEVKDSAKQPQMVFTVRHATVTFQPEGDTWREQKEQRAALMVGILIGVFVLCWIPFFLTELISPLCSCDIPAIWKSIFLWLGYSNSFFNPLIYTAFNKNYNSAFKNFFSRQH

Structures are written as SMILES. The list shows a part of the results, in another mix than the full data. Calls of active or inactive are those of the source. Rule as the data show it: active = activation above about 17%; inactive = the rest.

This experiment deals with 5-hydroxytryptamine receptor 5A (Homo sapiens) (UniProt P47898). Briefly: activation of human 5-HT5A receptor – cell-based, luminescence, counter-screen for OPRM1-OPRD1 heterodimer agonist project (AID 504905).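 Also: 0% = vehicle-treated cells and 100% = reference agonist response.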 As to conditions: HTR5A agonist counterscreen, at 9.3 µM, hits give high values. (In general: Counterscreens check selectivity or assay interference.)
Consider `CN(C(=O)Cc1ccc(Cl)c(Cl)c1)[C@H]1CC[C@@]2(CCCO2)C[C@@H]1N1CCCC1`, for which the activation was inactive: 2.96%. The value for `CN1CN(c2ccccc2)C2(CCN(CCCSc3ccccc3NC(=O)/C=C/c3ccccc3)CC2)C1=O` was inactive: 8.16%. As for `Cc1ccc(C)c(CN2CCC(n3nnc4cc(F)ccc43)CC2)c1`, the figure is inactive: 0.7%; as for `O=[N+]([O-])c1cc(Oc2ccc([N+](=O)[O-])cc2C(F)(F)F)cc([N+](=O)[O-])c1`, active: 18.1%. Turning to `CCn1c(N)[n+](CC(=O)Nc2ccc(SC(F)F)cc2)c2ccccc21`, the activation is inactive: 2.41%.
